# From publication PMC3045272 (Acta Crystallographica Section D: Biological Crystallography, 2011)
# By UniProt entry, the sequences of proteins in these tests, tags left out.
# UniProt P62937, whole entry: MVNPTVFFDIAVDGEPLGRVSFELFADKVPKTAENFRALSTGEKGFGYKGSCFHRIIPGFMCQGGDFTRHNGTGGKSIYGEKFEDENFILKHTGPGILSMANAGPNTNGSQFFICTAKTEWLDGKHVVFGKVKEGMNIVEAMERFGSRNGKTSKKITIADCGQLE
# Target: CypA (cyclophilin A) (Homo sapiens, UniProt P62937)
# Assay: biochemical
compound,measurement,value
C=C/C=C\C[C@@H](C)[C@@H](O)[C@H]1C(=O)N[C@@H](CC)C(=O)N(C)CC(=O)N(C)[C@@H](CC(C)C)C(=O)N[C@@H](C(C)C)C(=O)N(C)[C@@H](CC(C)C)C(=O)N[C@@H](C)C(=O)N[C@H](C)C(=O)N(C)[C@@H](CC(C)C)C(=O)N(C)[C@@H](CC(C)C)C(=O)N(C)[C@@H](C(C)C)C(=O)N1C [Z-ISA247],Kd,61 nM
